{"source": "patent US6800481B1", "about": "“Stable macroscopic membranes formed by self-assembly of amphiphilic peptides and uses therefor” (priority 1992, dated 2004)", "key": {"[1]": {"test": "Testing of peptides for macroscopic membrane formation (phase-contrast microscope, Congo Red staining)", "format": "physicochemical", "parameters": "key to membranous structure in DMEM / membranous structure in PBS / membranous structure in Water: The + and − denotes the presence and absence of the membranous structure, respectively.; The + and − denotes the presence and absence of the membranous structure, respectively", "source_text": "The effect of length and sequence on membrane formation was examined using several peptides (Table 1 and Example 3). […] The peptide length should be more than 12 amino acids and preferably at least 16 residues. Very long peptides, e.g., of about 200 amino acids, may encounter problems due to insolubility and intramolecular interactions which destabilize membrane formation. Furthermore, peptides with a large amount of hydrophobic residues may have insolubility problems. The optimal lengths for membrane formation will probably vary with the amino acid composition.\nFour non-amphiphilic peptides of varying amino acid sequence were tested for membrane formation; these are β-amyloid (1-28) (SEQ ID NO: 4), β-amyloid (23-35) (SEQ ID NO: 5), substance P (SEQ ID NO: 6), and spantide (SEQ ID NO: 7).\nThe EAK12 and EAK16 tested for membrane formation were acetylated and aminylated at both N- and C-terminal ends. Blocking of both of the N- and C-termini of EAK16 appeared not to be essential for membrane formation. The peptides were initially dissolved in water (5 mg/ml) or in 23% acetonitrile (10 mg/ml). A volume of 5-10 microliters of the dissolved peptides were applied to the DMEM medium, PBS or water. The formation of the membrane was first observed under a phase-contrast microscope and then, by the naked eye after staining with Congo Red."}, "[2]": {"format": "physicochemical", "settings": "secondary structure", "description": "Circular dichroism (CD) spectra were taken on an Aviv Model 60DS spectropolarimeter using program 60HDS for data processing. Because EAK16 contains both positively and negatively charged residues, the peptide itself can serve as a buffer. CD samples were prepared and measured at 25° C., unless otherwise indicated. All reagents were ultrapure and solutions were filtered through a […] before use. Circular dichroism (CD) spectroscopy was used to monitor the stability of the β-sheet structure of EAK16 under various conditions. Dilute […] concentrations. […] A 3 mM stock EAK16 solution was mixed in water to a concentration of 20 μM, allowed to equilibrate, and the CD spectrum measured. The solution was then diluted five times by two-fold serial dilutions to final concentrations of […], 10, 5.0, 2.5, 1.25 and 0.625 μM, allowed to equilibrate and CD spectra taken. Reverse experiments, in which the concentration of peptide was increased by adding more peptide, were also done and similar results were obtained. Temperature. The CD spectra of 8 μM EAK16 at 25, 37, 55, 70 and 90° C. in water were measured. The ratios of ellipticity at 194 nm/217 nm remained approximately 4.0 over the temperature range of 25-90° C. […] EAK16 has a calculated pI Of 6.71. It was assumed that changes of pH would have a great effect on the β-sheet structure, especially when the charged groups are neutralized. […]"}}, "data": [{"substance": "H2N-DAEFRHDSGYEV-HHQKLVFFAEDVGSNK-COOH [β-Amyloid (1-28), reference compound]", "values": [{"measurement": "membranous structure in DMEM", "setting": "[1]; DMEM medium", "value": "−"}, {"measurement": "membranous structure in PBS", "setting": "[1]; PBS", "value": "−"}, {"measurement": "formation of macroscopic membranes", "setting": "[1]; identical conditions, in words", "value": "None of these peptides produced macroscopic membranes"}, {"measurement": "membranous structure in Water", "setting": "[1]; water", "value": "−"}, {"measurement": "Structure", "setting": "[2]", "value": "RC, α, β"}]}]}
